# Earlier results in patent US10273264B2, “Cortistatin analogues and syntheses and uses thereof” (President and Fellows of Harvard College, priority 2015, dated 2019).
# Chains of the proteins cited; added tags and fusions are not shown. Lines headed by an entry give the natural chain unless they say otherwise; changes in a name come on top.
# UniProt P49336: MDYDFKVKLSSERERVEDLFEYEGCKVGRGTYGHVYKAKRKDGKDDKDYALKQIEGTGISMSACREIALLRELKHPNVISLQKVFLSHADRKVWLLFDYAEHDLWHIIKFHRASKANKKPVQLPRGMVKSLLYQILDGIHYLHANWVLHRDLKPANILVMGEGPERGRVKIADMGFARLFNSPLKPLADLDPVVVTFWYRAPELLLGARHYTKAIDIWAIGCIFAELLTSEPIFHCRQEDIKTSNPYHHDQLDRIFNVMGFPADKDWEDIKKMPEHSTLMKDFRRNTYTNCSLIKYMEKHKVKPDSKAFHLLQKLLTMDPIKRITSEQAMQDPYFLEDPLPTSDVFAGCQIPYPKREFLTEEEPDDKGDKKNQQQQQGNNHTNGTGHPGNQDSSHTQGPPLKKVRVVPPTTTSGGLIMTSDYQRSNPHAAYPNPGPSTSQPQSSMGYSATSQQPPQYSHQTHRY
# Legend:
# CDK8 [1] = molecular target: T1, CDK8 (Homo sapiens, UniProt P49336); conditions: reported, Cee et al. and US 20120071477
# CDK8 [2] = molecular target: T1, CDK8; conditions: as described in PCT/US2014/72365
substance,measurement,setting,value
cortistatin A,binding to CDK8,CDK8 [1],bind
same,inhibition of CDK8 kinase activity,CDK8 [2],inhibits
